Assay results reported in ChEMBL document CHEMBL5376006, “Discovery of a Hidden Pocket beneath the NES Groove by Novel Noncovalent CRM1 Inhibitors” (J Med Chem, 2023).

Amino acid sequences for entries named in this document (tags omitted).
UniProt O14980, whole entry: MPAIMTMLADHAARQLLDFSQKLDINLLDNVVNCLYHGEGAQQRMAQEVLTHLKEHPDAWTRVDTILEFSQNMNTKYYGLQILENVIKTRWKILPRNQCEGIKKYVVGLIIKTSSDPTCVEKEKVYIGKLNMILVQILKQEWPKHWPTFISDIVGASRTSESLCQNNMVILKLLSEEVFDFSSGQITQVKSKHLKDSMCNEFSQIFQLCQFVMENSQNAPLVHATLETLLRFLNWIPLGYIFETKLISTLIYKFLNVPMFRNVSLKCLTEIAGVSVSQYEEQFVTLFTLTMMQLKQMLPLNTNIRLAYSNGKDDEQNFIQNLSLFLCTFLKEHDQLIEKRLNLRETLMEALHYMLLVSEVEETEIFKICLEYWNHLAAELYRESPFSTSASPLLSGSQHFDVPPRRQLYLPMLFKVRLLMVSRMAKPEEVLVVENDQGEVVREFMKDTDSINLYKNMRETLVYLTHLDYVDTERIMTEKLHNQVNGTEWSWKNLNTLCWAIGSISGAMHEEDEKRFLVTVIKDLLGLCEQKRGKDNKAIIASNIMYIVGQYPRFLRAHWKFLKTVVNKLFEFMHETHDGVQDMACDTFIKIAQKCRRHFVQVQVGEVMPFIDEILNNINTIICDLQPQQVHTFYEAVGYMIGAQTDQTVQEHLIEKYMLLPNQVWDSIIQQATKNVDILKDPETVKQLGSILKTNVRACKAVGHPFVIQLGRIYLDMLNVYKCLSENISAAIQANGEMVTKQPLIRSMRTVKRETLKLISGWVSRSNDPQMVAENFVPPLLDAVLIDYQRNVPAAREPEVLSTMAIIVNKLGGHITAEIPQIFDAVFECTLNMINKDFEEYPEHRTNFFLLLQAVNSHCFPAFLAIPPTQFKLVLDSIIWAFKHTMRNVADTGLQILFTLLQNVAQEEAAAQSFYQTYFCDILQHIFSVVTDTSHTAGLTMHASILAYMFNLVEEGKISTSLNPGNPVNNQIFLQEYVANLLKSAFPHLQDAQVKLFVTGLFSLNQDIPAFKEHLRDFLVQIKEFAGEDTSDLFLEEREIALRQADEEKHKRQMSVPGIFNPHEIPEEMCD

Target: Exportin-1 (Homo sapiens, UniProt O14980)
Assay: Inhibition of CRM1 (unknown origin) binding to GST-tagged NES PKI assessed as CRM1/NES band ratio at 20 uM incubated for 1.5 hrs by Coomassie brilliant blue staining based pull-down assay

| SMILES | Ratio |
| --- | --- |
| O=C(O)c1ccc(N2CCN(c3cc(C(F)(F)F)ccc3C(F)(F)F)CC2)c(NC(=O)c2ccc(Br)cc2)c1 | 0.08 |
| O=C(O)c1ccc(N2CCN(c3cc(C(F)(F)F)ccc3C(F)(F)F)CC2)c(NC(=O)c2ccc(Cl)cc2)c1 | 0.07 |
| O=C(O)c1ccc(N2CCN(c3cc(C(F)(F)F)cc(C(F)(F)F)c3)CC2)c(NC(=O)c2ccc(Br)cc2)c1 | 0.1 |
